# Antibody variant affinities, Ab-14 light chain, assay B

From the AlphaSeq antibody data of Li et al. 2023 (doi:10.1038/s41467-023-39022-2), copy in the FLAb collection.

Target: peptide PDVDLGDISGINAS, taken from heptad repeat 2 (HR2) of SARS-CoV-2 spike.

Each scFv is VH, three GGGGS repeats, VL, as in the parent Ab-14, and differs from it in the CDRs of the light chain only.
VH: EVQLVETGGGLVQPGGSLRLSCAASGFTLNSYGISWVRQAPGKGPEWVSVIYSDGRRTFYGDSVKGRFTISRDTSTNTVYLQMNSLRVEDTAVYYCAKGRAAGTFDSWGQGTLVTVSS
VL: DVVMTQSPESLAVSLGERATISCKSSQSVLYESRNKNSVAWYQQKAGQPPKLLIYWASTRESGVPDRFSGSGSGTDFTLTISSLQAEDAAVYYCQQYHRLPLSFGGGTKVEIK

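The starting antibody came from a phage panning campaign against this peptide. This is the validation round: designs drawn from the data on random variants, tested in the same kind of assay. Several design methods are mixed in this list. AlphaSeq pools MATa yeast showing the antibodies with MATalpha yeast showing the peptide. Pairs that bind mate more often; barcode pairs of the diploids are counted by sequencing. Read counts were normalised to the haploid input and turned into Kd by a linear fit to BCL2-family pairs of known affinity, for each replicate. Each pool was mated in six replicate cultures.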

Each variant is given by its three light chain CDRs, as the data file delimits them; those of the parent are KSSQSVLYESRNKNSVA, WASTRES, QQYHRLPLS.
Variants here have more than six changes.
The Kd shown is the geometric mean over detected replicates; a lower Kd is a better binder.
A pair that was not seen in any replicate is written "no signal"; this usually means weak binding, but a binder can also be missed.
The range of this assay differs from that of the first round, and the authors advise against merging the two.
As a blank, each scFv also met three strains without target: over all light chain designs, 4% of these pairings were detected, typically at 430 nM and seldom below 38 nM.
The authors averaged sequences with at least three values out of six and counted those with two or fewer as poor binders.
Of ten entries with the parent sequence, four were seen in most replicates (averages 2.2 nM to 240 nM), three in one and three in none, so single entries are noisy.

For TLYGLSNSMSKNKNNVA / EMSTREP / QQYDRLPLE, the assay gave 1.1 nM (6 of 6 replicates). The variant KVSQSKLQGQRNKNSVA / EASTRER / QQYHRLPLS gave 680 nM (2 of 6 replicates). The variant KIGGVTNGFSRSKNSVA / EQSTRED / QQYDRLPLS gave 28 nM (5 of 6 replicates). The variant KFEWSQLYESRNCNSVA / NASTRES / QQYWRLPLS showed 12 nM (6 of 6 replicates). The variant KLSQSDCYEDRNLNNVA / HASQRES / QQYHRLPLM gave 1.5 nM (6 of 6 replicates). The variant KLQFSCLYESRWPNSVA / NASYRSS / QQYHRLPLS showed 7.4 nM (6 of 6 replicates). The variant HVEHDWLESNATMKAVA / NGATLAD / QQYGRLPLS showed 3.5 nM (6 of 6 replicates).

The variant TIGQTLMAGIRNRSNVA / EVSQRLN / QQYDRLPLA showed 34 nM (6 of 6 replicates). The variant KISQMVRVGSTASNSIA / EEQTRAK / QQYHRLPLA gave no signal (0 of 6 replicates). With KLAMALSVEFGTYHGVA / DADHRAK / QQYNRLPLS the result was 3.4 nM (6 of 6 replicates). The variant MLSQMWAIGMKVSNSVA / QASTRFN / QQYERLPLI gave 58 nM (5 of 6 replicates). The variant KVSEMMAFLSRNRNSVA / DNSTRGA / QQYHRLPLS gave 64 nM (6 of 6 replicates). With HSSWSVDDESRNDNSVA / DASTRED / QQYHRLPLS the result was 490 pM (6 of 6 replicates). The variant KISQVFMMTGKLKNSVA / NALTRVQ / QQYHRLPLS showed 3.9 nM (6 of 6 replicates).

With QLLMATMQGTYNRNSVA / HAETRED / QSYHRLPLA the result was 100 nM (2 of 6 replicates). The variant NVGQSMDGESRNRNSVA / HQSTRED / QHYHRLPLS showed 9.3 nM (6 of 6 replicates). For ILSQMLMTAGNKHNSVA / QANYRES / QQYHRLPLS, the assay gave 39 nM (6 of 6 replicates). The variant KVSEFMRGLMMRKDNIA / DNNTRQN / QQYDRLPLS gave 30 nM (6 of 6 replicates). The variant HITMGMYVSGRYKSNIA / QAETREK / QQYDRLPLT gave 2.4 nM (6 of 6 replicates). For KSSQLEYYEDRNKMSVA / NASYRLS / QQYHRLPLS, the assay gave 1.5 nM (6 of 6 replicates). The variant HMSFLTLGGMRQKNSVA / QMTTREN / QQYDRLPLA showed 2.7 nM (6 of 6 replicates).

With KYSQQMLYSSRNKNNVA / EASHRES / QQYHRLPLS the result was 2.0 nM (6 of 6 replicates). For KLSSVTGHMSMAKNNVA / EMETREK / QQYNRLPLS, the assay gave 510 pM (6 of 6 replicates). For QMYPFEVAKGEGTNNVA / HVSVRAL / QQYERLPLV, the assay gave 16 nM (6 of 6 replicates). For TVSQVHEMLSHNKNSVA / DMNTRES / QQYDRLPLS, the assay gave 820 pM (6 of 6 replicates). For KVYQSNLYESRNDNNVA / NASLRES / QQYHRLPLS, the assay gave 1.2 nM (6 of 6 replicates). For KCAQGWLYESRNKNNVA / NASQREH / QQYHRLPLS, the assay gave 180 pM (6 of 6 replicates). For KISQSILFMSGAKNAIA / QMEMREE / QQYHRLPLS, the assay gave 7.4 nM (6 of 6 replicates).

The variant KISQVAMMTGKLKNSVA / NAYTRVQ / QQYHRLPLS showed 6.8 nM (6 of 6 replicates). With KLSQSVNMTGKNKNSVA / ELSFREA / QQYERLPLS the result was 2.7 nM (3 of 6 replicates). For KVSEFMRGLMQKTDSIA / DNVTRGN / QQYDRLPLS, the assay gave 24 nM (6 of 6 replicates). The variant KLSMSYRYASQEKNSIA / EMSTREE / QSYHRLPLS gave 5.4 nM (6 of 6 replicates).

Excerpt, the first 2 entries:

Variant TLYGLSNSMSKNKNNVA / EMSTREP / QQYDRLPLE gave 1.1 nM (6 of 6 replicates).
Variant KVSQSKLQGQRNKNSVA / EASTRER / QQYHRLPLS gave 680 nM (2 of 6 replicates).